The text below walks through data of PubChem BioAssay AID652268 (The Scripps Research Institute Molecular Screening Center, 2013).

Each structure is given as a SMILES string. The entries are a selection whose mix differs from that of the whole data set. Active and inactive are the calls of the source. No stated cut-off is given here; in the data, active means activation above about 1.3%; inactive means the rest.

The experiment is described as follows: parental HEK293-CNG cell agonism artefacts – fluorescence, high throughput, counter-screen for GalR3 antagonist project (AID 652268). The following applies: HEK293-CNG parental cells, cAMP membrane potential fluorescence; at 3 µM; hits give high values; normalised: DMSO wells 0%, forskolin wells 100%. In general terms: The purpose of a counterscreen is to sort out artefacts and off-target activity.
As to `CCc1nc2c(n1)c1c(non1O)c1c2no[n+]1[O-]`, the activation is inactive: 0.34%.
As to `Cc1ccc(NP(=O)(Oc2ccccc2)Oc2ccccc2)nc1`, the activation was inactive: 0%.
Take `CC1(CBr)Cn2c(nc3ccccc3c2=O)S1` (stereo not drawn): the activation is inactive: 0.13%.
